Values of other authors, collected in paper PMC3758776.

By UniProt entry, the sequences of proteins in these tests, tags left out. Residues count along the entry.
UniProt P19235, 25-508: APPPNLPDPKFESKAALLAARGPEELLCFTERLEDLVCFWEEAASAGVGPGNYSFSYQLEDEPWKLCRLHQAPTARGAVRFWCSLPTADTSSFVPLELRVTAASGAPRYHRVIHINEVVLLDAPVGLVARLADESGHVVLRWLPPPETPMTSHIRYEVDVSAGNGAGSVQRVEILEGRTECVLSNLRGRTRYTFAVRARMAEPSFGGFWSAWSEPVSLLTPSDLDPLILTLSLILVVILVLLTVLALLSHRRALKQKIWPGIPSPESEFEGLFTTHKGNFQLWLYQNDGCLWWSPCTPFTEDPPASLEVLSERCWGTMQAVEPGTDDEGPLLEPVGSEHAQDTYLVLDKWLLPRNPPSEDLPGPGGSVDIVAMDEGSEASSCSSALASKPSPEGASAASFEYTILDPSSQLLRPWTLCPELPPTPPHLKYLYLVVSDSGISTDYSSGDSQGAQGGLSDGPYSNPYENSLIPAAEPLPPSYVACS

Target: erythropoietin receptor (medullary collecting duct cells) (Homo sapiens) (UniProt P19235)

Kd: 1.3 nM
Substance: Erythropoietin (from UniProt P01588)
